Assay results: US11819554B2, “Compositions and methods for modulating FMR1 expression” (University of Massachusetts, priority 2015, dated 2023)

Tested on: epigenetically silenced FMR1 gene in FXS iPSCs (FXS 848-iPS3 cells)
Test: qRT-PCR analysis monitoring expression of FMR1 in FXS iPSCs
Assay type: cell-based, human
Conditions: titration with increasing concentrations (FIG. 8D)

CCN(c1cc(-c2ccc(CN3CCOCC3)cc2)cc(C(=O)NCc2c(C)cc(C)[nH]c2=O)c1C)C1CCOCC1 [EPZ6438]
correlation between loss of EZH2 enzymatic activity and FMR1 reactivation: very good correlation
